# Literature values in PubChem BioAssay AID1811 (Shanghai Institute of Organic Chemistry, 2009).
# The other results are listed elsewhere or left out. Active and inactive are the calls of the source. Where no limit is named, active and inactive come without a cut-off here.
# Test system: beta-lactamase
# Experiment: PubChem AID 1811
# Details: PDB complex binding affinities from literature
smiles,measurement,value
O=C(Cc1cccs1)N[C@H]([Al])c1cccc(C(=O)O)c1,outcome,active
